In US20070110715A1, “Treatment of alzheimer's disease” (Ares Trading S.A., priority 2003, published 2007):

Assays:
early-onset AD patients [1] = experiment: Effect of IFN-β in combination with an AChEI in early-onset AD patients (Example 1); format: in vivo, human; details: IFN-β plus ChEI
Procedure: The effect of IFN-β in combination with an AChEI on AD disease development is performed on 40 early-onset AD patients.
The clinical efficacy of IFN-β-1a (Rebif® 22 μg, tiw) in the treatment of AD is evaluated by measuring changes in neuropsyhological performance from baseline.
This 6-month, single-center, pivotal study is performed on 40 early-onset AD patients. Subjects are randomized into two groups: the first group (n=20) receiving Rebif® 22 μg tiw plus an acetylcholinesterase inhibitor (e.g., donepezil, rivastigmine, galantamine, etc.); the second group (n=20) receiving a placebo plus an acetylcholinesterase inhibitor. […]
The trial is designed as a pilot investigation of the clinical utility of Rebif® 22 μg tiw in combination with an acetylcholinesterase inhibitor in the treatment of AD; sample size was chosen based on feasibility for a single-site study. Continuous variables, including cognitive and behavioral scores, am analysed by measuring changes from baseline; analysis of variance is used to compare between-group differences. Side effects are analysed using descriptive statistics and non-parametric tests.
Outcome measures are assessed at baseline, week 12, and week 25 (study completion). […]

early-onset AD patients [2] = experiment: Effect of IFN-β in early-onset AD patients (Example 2, placebo-controlled clinical study); format: in vivo, human; details: for effect on clinical severity / clinical signs of early-onset Alzheimer's disease: IFN-β administered alone or in combination with a cholinesterase inhibitor, early-onset AD patients
Procedure: The effect of IFN-β on AD disease development is performed on 40 early-onset AD patients.
The clinical efficacy of IFN-β-1a (Rebif® 22 μg, tiw) in the treatment of AD is determined by measuring differences in neuropsychological performance changes into two treatment arms (placebo and treatment) from baseline to 28-week treatment follow-up.
This 52-week, single-center, pivotal study is performed on 40 early-onset AD patients. Subjects are randomized into two groups: the first group (n=20) receiving Rebif® 22 μg tiw; the second group (n=20) receiving a placebo. The treatment period is ended after 28 weeks.
Forty patients are randomly assigned in a double-blind, controlled, parallel groups study comparing interferon beta treatment to placebo in patients with Alzheimer's dementia.
Based on the primary objectives of the study (calculated using MMSE and ADAS-cog scores to assess cognitive decline), the null hypothesis is that interferon beta will not stop the progressive decline in cognitive function typical of the natural history of Alzheimer's dementia. In other words, after 12 months of treatment, the MMSE and ADAS-cog scores of patients randomized to receive interferon beta therapy will be similar to those of patients who receive placebo treatment.
For this protocol, patients with an MMSE score equal to 20±5 were enrolled. Sample analyses assumed a clinically relevant effect size coinciding with a standard deviation (SD) respective to mean MMSE and ADAS-cog scores in cohorts of patients enrolled in previous randomized clinical trials. MMSE is a scale with a range from 0 to 30 decreasing with cognitive impairment, abnormal under the value of 26/30 age and education adjusted. ADAS-cog is a test with a score from 0 to 70 that increase with the impairment of cognitive functions, abnormal up a value of 9.5/70. […]
With regards to the primary objective of the effect of interferon beta on cognitive decline evaluated using ADAS-cog, it has been reported in the literature that MMSE scores correspond with ADAS-cog scores (Doraiswamy P M, Bleper F, Kalser L, Krishnan K R, Reuning-Scherer J, Gulanski B. The Alzheimer's disease assessment scale: patterns and predictors of baseline cognitive performance in multicenter Alzheimer's disease trials. Neurology 1997;48:1511-1517). […]
Outcome measures are assessed at baseline, week 12, week 28, and 52 (study completion). […]

IFN-β: Rebif® is recombinant human interferon (IFN)-beta 1a, produced from mammalian cell lines
effect on therapeutic activity of cholinesterase inhibitors (early-onset AD patients [1]): synergetically enhancing the therapeutic activity of cholinesterase inhibitors | effect on clinical severity / clinical signs of early-onset Alzheimer's disease (early-onset AD patients [2]): significantly reduces clinical signs of the disease | effect on clinical severity / clinical signs of early-onset Alzheimer's disease (early-onset AD patients [2]; listed as interferon-β): pronounced beneficial effect | expected mean MMSE score (early-onset AD patients [2]; patients treated with interferon beta, if null hypothesis is false, SD=5, expected placebo score 15.2): 20.2 | expected mean ADAS-cog score (early-onset AD patients [2]; patients treated with interferon beta, if null hypothesis is false, SD=10, placebo about 36.5): 26.5
